From US20090123907A1 (priority 2004, published 2009) come the findings set out here.

In the test the test system is Serratia marcescens (−). Conditions: 2% lysine citrate.

In the case of `NCCCC[C@H](N)C(=O)O.O=C(O)CC(O)(CC(=O)O)C(=O)O` [Lysine Citrate, lysine citrate], the “growth of Serratia marcescens” value is reported as “prevented from growing”.
